The results in this text go back to patent US20230277630A1, “METHODS AND COMPOSITIONS FOR TREATING AMYOTROPHIC LATERAL SCLEROSIS” (Amylyx Pharmaceuticals, Inc., priority 2022, published 2023).

For data set [1], the system named is P-gp and BCRP. Put plainly: P-gp and BCRP substrate assessment, bidirectional permeability in C2BBe1 cells. Conditions: 10 μM probe, batch used with Sol_1, Sol_3, and Sol_4, single replicates.
Data set [2] has as its system P-gp and BCRP. Conditions: human, Caco-2, 10 μM, pH 7.4.

Molecules are shown by their SMILES. Read-outs that look alike come from different tables or passages of the source.

As for `C[C@H]1O[C@@H](O[C@H]2[C@@H](O)C[C@H](O[C@H]3[C@@H](O)C[C@H](O[C@H]4CC[C@@]5(C)[C@H](CC[C@@H]6[C@@H]5C[C@@H](O)[C@]5(C)[C@@H](C7=CC(=O)OC7)CC[C@]65O)C4)O[C@@H]3C)O[C@@H]2C)C[C@H](O)[C@@H]1O` [digoxin], in data set [1], the “AP-to-BL Recovery” value is given as 82.4%.
Take `Nc1nc(Cl)nc2c1ncn2[C@H]1C[C@H](O)[C@@H](CO)O1` [cladribine]: in data set [2], the “AP-to-BL Recovery” value amounted to 86.8% and the “BL-to-AP Recovery” value is listed as 97.9%.
